For ten compounds, IC50 results are on record in patent US20210253598A1, “ARYL ANNULATED MACROCYCLIC INDOLE DERIVATIVES” (priority 2017, published 2021).

One data set has as its target MCL-1 (Homo sapiens, UniProt Q07820, K194A/K197A/R201A). Put plainly: Protein-protein interaction assay MCL-1/Noxa BH3 peptide, TR-FRET (MCL-1 assay, Assay 1). The format is binding. To be noted: MCL-1 Assay [M] (median), MBP-MCL-1 / Noxa BH3 peptide. The procedure: The dose-dependent inhibition by the compounds described in this invention of the interaction between MCL-1 and the BH3 domain of Noxa (both human) was determined using a steady state binding competition assay with time-resolved fluorescence energy transfer (TR-FRET) readout. For that purpose MCL-1 (amino acids 173-321, N-terminal fused to Maltose Binding Protein (MBP), SEQ ID 1) and a synthetic Noxa BH3-derived peptide of sequence Biotin-PEG2-PEG2-PAELEVE-Nva-[…]-amide (SEQ ID 2) served as protein receptor and tracer ligand respectively. The MBP-MCL-1 was purchased from Beryllium (Bedford, Mass., USA). The expression and purification of this protein construct has been described elsewhere (DOI:10.1371/journal.pone.0125010). The Noxa BH3-derived peptide can be obtained from e.g. Biosyntan (Berlin, Germany).
For that, 100-fold concentrated DMSO solutions were prepared by serial dilutions (1:3.4) of a 2 mM stock solution in a clear, 384-well microtiter plate (Greiner Bio-One, Frickenhausen, Germany). From there, 50 nl were transferred in a dark test plate (Greiner Bio-One, Frickenhausen, Germany). The assay was initiated by addition of 2 μl of a 2,5-fold concentrated MBP-MCL-1 solution (usually for a 1 nM end concentration in 5 μl reaction volume) in aqueous assay buffer [50 mM Tris/HCl pH 7, 100 mM sodium chloride (NaCl), 50 mM potassium fluoride (KF), 0.005% Tween-20, 2 mM DTT, 0.1% bovine gamma globulin (BGG)] to the compounds in the assay plate. This was followed by a 10-minute incubation step at 22° C. for pre-equilibration of the putative complex between MBP-MCL-1 and the compounds.
The mixture was incubated in the dark for one hour at 22° C. and then overnight at 4° C. The formation of MCL-1/Noxa complexes was determined by measuring the resonance energy transfer of the anti-MBP-Eu-cryptate antibody to the streptavidin-XL665 present in the reaction. For that purpose, the fluorescence emission at 620 nm and 665 nm after excitation at 330-350 nm was measured in a TR-FRET measuring instrument, for instance a Rubystar or a Pherastar (both from BMG Lab Technologies, Offenburg, Germany) or a Viewlux (Perkin-Elmer). The ratio of the emission at 665 nm and at 622 nm was used as indicator of the amount of MCL-1/NOXA complexes present.
The resulting data (ratio) were normalized, taking 0% inhibition as the mean value of control measurements (usually 32 data points) where all reagents were included. In this case 50 nl DMSO were used instead of compounds. […] IC50 values were determined by regression analysis based on a 4 parameter equation (minimum, maximum, IC50, Hill; Y=Max+(Min−Max)/(1+(X/IC50)^Hill) using the Screener Software (Genedata).
(In TR-FRET formats the signal depends on donor and acceptor labels being close together.)

A further data set concerns SUDHL5. Put plainly: Induction of cytotoxicity in SUDHL5 cells, CellTiter-Glo (Assay 6). Type of data set: cell-based. To be noted: SUDHL5, 5 hours incubation, median, read-out: Cytotox SUDHL5 [M] (median). The procedure:
(§1) Induction of Cytotoxicity Upon Treatment of Cells with Selected Compounds
(§2) In principle, compounds that induce apoptosis will concomitantly induce cell cytotoxicity. Therefore, cytotoxicity assays were run in parallel in SUDHL5 and SUDHL10 cells.
(§3) As a control, medium without cells was also added to the plate. Cells were incubated in a humidified incubator at 37° C. overnight. […] Rim wells were excluded. The cells were incubated for 5 hours in a humidified incubator at 37° C. After this incubation, 30 μl of CellTiter-Glo® Luminescent Cell Viability reagent (Promega, G7573) was added to each well using the Multidrop Combi Reagent Dispenser, followed by 15 minutes incubation on a shaker at room temperature. Finally, luminescence was read at 0.1 ms, with a gain of 3000 using the PHERAstar FS microplate reader (BMG Labtech).
On the technique in general: ATP-based viability assays read luminescence as a measure of living cells.

Another data set concerns SUDHL10. Put plainly: Induction of cytotoxicity in SUDHL10 cells, CellTiter-Glo (Assay 6). To be noted: Homo sapiens, SU-DHL10, 5 h, SUDHL10, 5 hours incubation, median, read-out: Cytotox SUDHL10 [M] (median). Type of data set: cell-based. The procedure: as §1, §2, §3

Structures can show the parent of a compound that is named as a salt. Where two headings read alike, the source gives them in different places.

At MCL-1, `Cc1c2c(nn1C)CNCc1ccccc1Cn1c(C(=O)O)c(CCCOc3cccc4ccccc34)c3cccc-2c31` (racemic) [Example 11, (rac)-4,5-Dimethyl-17-[3-(naphthalen-1-yloxy)propyl]-7,8,9,14-tetrahydro-5H-indolo[1,7-bc]pyrazolo[4,3-e][2,8]benzodiazacycloundecine-16-carboxylic Acid] displayed an IC50 of 5.4e-09 M.
For `Cc1c2c(nn1C)COCc1ncccc1Cn1c(C(=O)O)c(CCCOc3cccc4ccccc34)c3cccc-2c31` (racemic) [Example 7, (rac)-4,5-Dimethyl-17-[3-(naphthalen-1-yloxy)propyl]-5,7,9,14-tetrahydropyrazolo[4′,3′:9,10]-pyrido[2′,3′:3,4][1,6]oxazacycloundecino[8,7,6-hi]indole-16-carboxylic Acid], the IC50 at MCL-1 amounted to 1.7e-09 M.
Consider `CCc1c2c(nn1C)COCc1ccccc1Cn1c(C(=O)O)c(CCCOc3cccc4ccccc34)c3ccc(F)c-2c31` (racemic) [Example 70, (rac)-14-Ethyl-15-fluoro-13-methyl-1-(3-(naphthalen-1-yloxy)propyl)-4,9,11,13-tetrahydrobenzo[3,4]pyrazolo[4′,3′:9,10][1]oxa[6]azacycloundecino[8,7,6-hi]indole-2-carboxylic Acid], for which the IC50 in the data set on SUDHL5 worked out at 1.7e-06 M.
As for `Cc1c2c(nn1C)COCc1ccccc1Cn1c(C(=O)O)c(CCCOc3cccc4ccccc34)c3ccc(F)c-2c31` (racemic) [Example 67, (rac)-15-Fluoro-13,14-dimethyl-1-(3-(naphthalen-1-yloxy)propyl)-4,9,11,13-tetrahydrobenzo[3,4]pyrazolo[4′,3′:9,10][1,6]oxaazacycloundecino[8,7,6-hi]indole-2-carboxylic Acid], the IC50 at MCL-1 worked out at 1.7e-09 M.
On to `CCc1nn(C)c2c1-c1c(F)ccc3c(CCCOc4cccc5cc(F)ccc45)c(C(=O)O)n(c13)Cc1ccccc1COC2` (racemic) [Example 90, (rac)-14-Ethyl-15-fluoro-1-(3-((6-fluoronaphthalen-1-yl)oxy)propyl)-12-methyl-4,9,11,12-tetrahydrobenzo[3,4]pyrazolo[4′,3′:9,10][1,6]oxaazacycloundecino[8,7,6-hi]indole-2-carboxylic Acid], for which the IC50 turned out to be 3.5e-06 M in the data set on SUDHL10 and 1.7e-06 M in the data set on SUDHL5 (Homo sapiens, SU-DHL-5, 5 h).
At MCL-1, `Cc1c2c(nn1C)COCc1nc3ccccc3nc1Cn1c(C(=O)O)c(CCCOc3cccc4ccccc34)c3cccc-2c31` (racemic) [Example 10, (rac)-4,5-Dimethyl-19-[3-(naphthalen-1-yloxy)propyl]-5,7,9,16-tetrahydroindolo[1′,7′:6,7,8]-pyrazolo[4′,3′:9,10][1,6]oxazacycloundecino[3,4-b]quinoxaline-18-carboxylic Acid] registered an IC50 of 2.8e-09 M.
Consider `CCc1c2c(nn1C)COCc1ccccc1Cn1c(C(=O)O)c(CCCOc3cccc4cc(F)ccc34)c3ccc(Cl)c-2c31` (single isomer, unassigned; enantiomer 1) [Example 55, (−)-3-Chloro-4-ethyl-17-{3-[(6-fluoronaphthalen-1-yl)oxy]propyl}-5-methyl-5,7,9,14-tetrahydro-indolo[7,1-fg]pyrazolo[3,4-d][2,8]benzoxazacycloundecine-16-carboxylic Acid N-ethylethanamine Salt (Enantiomer 1)], for which, at MCL-1, the IC50 was 1.1e-09 M.
Take `CCc1c2c(nn1C)COCc1ccccc1Cn1c(C(=O)O)c(CCCOc3cccc4c3CCCC4)c3ccc(F)c-2c31` (racemic) [Example 77, (rac)-14-Ethyl-15-fluoro-13-methyl-1-(3-((5,6,7,8-tetrahydronaphthalen-1-yl)oxy)propyl)-4,9,11,13-tetrahydrobenzo[3,4]pyrazolo[4′,3′:9,10][1]oxa[6]azacycloundecino[8,7,6-hi]indole-2-carboxylic Acid]: on MCL-1, the IC50 came out at 2.8e-09 M.
Take `CCc1nn(C)c2c1-c1c(Cl)ccc3c(CCCOc4cccc5cc(F)ccc45)c(C(=O)O)n(c13)Cc1ccccc1COC2` (racemic) [Example 57, (rac)-3-Chloro-4-ethyl-17-{3-[(6-fluoronaphthalen-1-yl)oxy]propyl}-6-methyl-6,7,9,14-tetrahydro-indolo[7,1-fg]pyrazolo[3,4-d][2,8]benzoxazacycloundecine-16-carboxylic Acid]: the IC50 with SUDHL5 (Homo sapiens, SU-DHL-5, 5 h) came to 1.7e-06 M.
With `Cc1c2c(nn1C)COCc1cccnc1Cn1c(C(=O)O)c(CCCOc3cccc4ccccc34)c3ccc(Cl)c-2c31` (single isomer, unassigned; enantiomer 1) [Example 40, 3-Chloro-4,5-dimethyl-17-[3-(naphthalen-1-yloxy)propyl]-5,7,9,14-tetrahydropyrazolo-[4′,3′:9,10]pyrido[3′,2′:3,4][1,6]oxazacycloundecino[8,7,6-hi]indole-16-carboxylic acid-N-ethylethanamine Salt (Enantiomer 1)], at MCL-1, the IC50 was 2.8e-09 M.
